# Data taken from IntAct's records for PubMed 21765415.
# B1: Tax1-binding protein 1 (Homo sapiens), Q86VP1-2 (parent)
# chain: MTSFQEVPLQTSNFAHVIFQNVAKSYLPNAHLECHYTLTPYIHPHPKDWVGIFKVGWSTARDYYTFLWSPMPEHYVEGSTVNCVLAFQGYYLPNDDGEFYQFCYVTHKGEIRGASTPFQFRASSPVEELLTMEDEGNSDMLVVTTKAGLLELKIEKTMKEKEELLKLIAVLEKETAQLREQVGRMERELNHEKERCDQLQAEQKGLTEVTQSLKMENEEFKKRFSDATSKAHQLEEDIVSVTHKAIEKETELDSLKDKLKKAQHEREQLECQLKTEKDEKELYKVHLKNTEIENTKLMSEVQTLKNLDGNKESVITHFKEEIGRLQLCLAEKENLQRTFLLTTSSKEDTCFLKEQLRKAEEQVQATRQEVVFLAKELSDAVNVRDRTMADLHTARLENEKVKKQLADAVAELKLNAMKKDQDKTDTLEHELRREVEDLKLRLQMAADHYKEKFKECQRLQKQINKLSDQSANNNNVFTKKTGNQQKVNDASVNTDPATSASTVDVKPSPSAAEADFDIVTKGQVCEMTKEIADKTEKYNKCKQLLQDEKAKCNKYADELAKMELKWKEQVKIAENVKLELAEVQDNYKELKRSLENPAERKMEDGADGAFYPDEIQRPPVRVPSWGLEDNVVCSQPARNFSRPDGLEDSEDSKEDENVPTAPDPPSQHLRGHGTGFCFDSSFDVHKKCPLCELMFPPNYDQSKFEEHVESHWKVCPMCSEQFPPDYDQQVFERHVQTHFDQNVLNFD
# partner: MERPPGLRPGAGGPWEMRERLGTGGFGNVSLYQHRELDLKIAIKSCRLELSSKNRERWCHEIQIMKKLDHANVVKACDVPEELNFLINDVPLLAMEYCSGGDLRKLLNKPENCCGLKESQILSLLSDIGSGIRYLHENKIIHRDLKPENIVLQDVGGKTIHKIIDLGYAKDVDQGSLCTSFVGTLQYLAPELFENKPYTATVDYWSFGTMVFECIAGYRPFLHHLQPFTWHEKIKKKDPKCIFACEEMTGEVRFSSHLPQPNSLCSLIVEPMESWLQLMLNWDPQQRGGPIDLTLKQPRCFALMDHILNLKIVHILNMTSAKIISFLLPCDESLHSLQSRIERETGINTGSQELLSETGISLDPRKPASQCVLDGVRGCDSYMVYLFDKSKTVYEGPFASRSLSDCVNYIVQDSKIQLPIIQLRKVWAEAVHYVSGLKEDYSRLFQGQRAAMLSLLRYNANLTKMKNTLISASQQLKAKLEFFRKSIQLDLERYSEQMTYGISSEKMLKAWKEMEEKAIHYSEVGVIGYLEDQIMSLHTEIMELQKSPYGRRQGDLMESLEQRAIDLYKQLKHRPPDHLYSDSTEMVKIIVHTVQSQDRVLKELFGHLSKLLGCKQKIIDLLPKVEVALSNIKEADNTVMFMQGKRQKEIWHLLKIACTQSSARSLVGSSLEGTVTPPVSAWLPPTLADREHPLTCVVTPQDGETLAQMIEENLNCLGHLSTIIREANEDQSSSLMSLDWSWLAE
# Variants of: B1
# Conditions: with ikka_mouse Chuk
row,Variant,effect of a mutation on the interaction
1,S624A,disrupting interaction
